Target: Gal4 DNA binding domain fused to the LBD of LXRα in HEK293 cells (Homo sapiens (Human), UniProt Q13133)
Assay: LXR luciferase transcriptional reporter gene assay, agonist mode, LXRα
Format: cell-based
Conditions: read-out: Cell LXRα EC50

By UniProt entry, the sequences of proteins in these tests, tags left out. Residues count along the entry.
UniProt Q13133, 209-447: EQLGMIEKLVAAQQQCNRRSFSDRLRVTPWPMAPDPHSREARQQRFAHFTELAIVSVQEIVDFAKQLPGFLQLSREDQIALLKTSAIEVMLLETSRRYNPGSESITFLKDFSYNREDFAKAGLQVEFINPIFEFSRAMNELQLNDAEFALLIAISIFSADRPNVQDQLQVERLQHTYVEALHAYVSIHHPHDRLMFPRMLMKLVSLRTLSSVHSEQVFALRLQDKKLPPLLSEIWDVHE

`CS(=O)(=O)c1cccc(N2CCN(Cc3ccc(C(F)(F)F)o3)[C@H](c3ccccc3)C2)c1` [46-65, (R)-4-(3-(methylsulfonyl)phenyl)-2-phenyl-1-((5-(trifluoromethyl)furan-2-yl)methyl)piperazine] gave an EC50 greater than 20 µM.

Source: patent US10144715B2, “Piperazine derivatives as liver X receptor modulators” (priority 2014, dated 2018)
